Shown are actives, neighbours in structure and some others; about 1.5% of the full set was active somewhere.
Yeast UUG start-1: yeast start codon fidelity modulation; actives 0.13% (n = 350,000); activity score, % at 18.7 µM; S. cerevisiae UUG-firefly luciferase reporter, luminescence/redox ratio;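 active = replicate mean at a twofold rise or more, about +100% in these data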;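 note: firefly luciferase made from a UUG start codon reports start codon fidelity; reporter light over untreated wells divided by growth signal over untreated wells; some hits fall short of that in this replicate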
Cneo AK release: Cryptococcus neoformans cell lysis inducers, primary screen, AK release luminescence, single concentration | C. neoformans lysis, adenylate kinase release luminescence, 4 h; normalised: neutral wells 0, clomiphene wells 100 | lysis activity, % at 15 µM | hit rate 0.2% among 360,000;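 active = mean lysis activity across replicates of at least 80%, whatever share of replicates individually reach that level; inactive = mean lysis activity below 80%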
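Material: C. neoformans cells; Schedule: 4 h static compound exposure, 37 °C, read 1 h post-reagent; Measured by: adenylate kinase release luminescence; Read-out: signal increase indicating cell lysis; Controls: Clomiphene as positive lysis control.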
miR122 inh: miR-122 Renilla sensor signal increase in Huh7, primary screen, miR-122 inhibitor project, cell-based, single point, plate reader | Huh7 miR-122 Renilla luciferase sensor, 48 h; neutral wells = 0, positive control = 100 | activation (reporter increase), % at 12.5 µM | hit rate 0.3% among 340,000;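 active = mean replicate activation score at least 90 and every replicate individually at or above 90; inconclusive = only one of the two criteria met; inactive = neither criterion met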;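 note: higher luciferase means less miR-122 activity so hits act as miR-122 inhibitors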
HIV Env fusion: inhibitors of HIV-1 Env-driven cell-cell fusion, primary screen, HeLa-JRFL effector, CEM21 target cells, luciferase; inhibition, % at 12.3 µM; hit rate 1.1% among 360,000; AID 651610, 2012;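 active = mean replicate inhibition score of at least 50 and every replicate individually at or above 50; inconclusive = only one of the two criteria met; inactive = mean below 50 and not all replicates reaching 50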;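 note: 0% = plate neutral controls and 100% = maraviroc near 300 nM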
FN deposition inh: inhibitors of fibronectin matrix deposition, primary screen, AH1F cells, Alexa488-fibronectin fluorescence, plate reader; hit rate 0.086% among 350,000; AH1F fibroblasts, overnight; AID 743247, 2014; inhibition, % at 12.6 µM;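 active = mean inhibition across replicates of 30% or more, regardless of how many single replicates reach that level; inconclusive = mean under 30% yet at least half of replicates reach 30%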;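 note: positive control wells lacked labelled fibronectin entirely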
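Assay system: AH1F fibroblasts assembling fluorescent fibronectin matrix; Amount: 10000 AH1F cells per well; Buffer or medium: DMEM, 2% serum; Probe or stimulus: Alexa488-fibronectin, 24 nM final in well; Doses: single compound dose, delivered by pin transfer; Incubation: 1 h adhesion, overnight exposure; Measured by: fluorescence 485/525 nm; Read-out: fibronectin deposition inhibition.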
PGC1a acetyl inh: inhibitors of PGC1a acetylation signal, primary screen, cell-based, U2OS, AlphaScreen, inhibitor mode | AlphaScreen anti-acetyl-lysine; with virally co-expressed GCN5 acetyltransferase | inhibition, % at 15.6 µM | hit rate 0.17% among 350,000;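 active = every replicate shows inhibition of at least 40%; inconclusive = mean inhibition at least 40% but some replicate below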;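 note: 0% = neutral control wells and 100% = positive control wells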
Yeast UUG start-2: enhancers of UUG start codon usage in yeast, dose response, S. cerevisiae, UUG firefly luciferase, cherry-pick, set 2. activation, % at 38 µM. luminescence, 4 h; 100% means double the DMSO signal. 540 tested, under 10 active. shares compounds with Yeast UUG start-1. AID 652061, 2013;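 active = signal increase whose fitted curve reaches an absolute level of 40 at a concentration under 10 µM; inactive = activity opposite to the expected increase, or the rest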
The depositor's hits bear a star; [ ] = remark or other dose.

Results for OC(CCN1CCCCC1)(c1ccccc1)C1C[C@@H]2C=C[C@H]1C2 (stereo not given in full) ?
Yeast UUG start-1: -15; Cneo AK release: 0; miR122 inh: 2; HIV Env fusion: -4; FN deposition inh: -4; PGC1a acetyl inh: -7

How did CN1CCN(CC#CC(C)(O)C2CC3C=CC2C3)CC1 (stereo not given) do in these assays?
Yeast UUG start-1: 166*; Cneo AK release: -1; miR122 inh: 1; PGC1a acetyl inh: 0; Yeast UUG start-2: 0

Results for CC(C)C(=O)c1cn(CC(=O)NCC2CCCO2)c2ccccc12 (stereo not given) ?
Yeast UUG start-1: 449*; Cneo AK release: 0; miR122 inh: 18; HIV Env fusion: -14; FN deposition inh: -15; PGC1a acetyl inh: 11; Yeast UUG start-2: 8

Results for CCc1cccc2c(C(=O)C(F)(F)F)cn(CC(=O)NCC3CCCO3)c12 (stereo not given) ?
HIV Env fusion: -19; FN deposition inh: -8; Yeast UUG start-2: -6

Results for CCOc1ccccc1NC(=O)NC(=O)N(C)S(C)(=O)=O ?
Yeast UUG start-1: 436*; Cneo AK release: -1; miR122 inh: 2; HIV Env fusion: -9; FN deposition inh: -3; PGC1a acetyl inh: -9; Yeast UUG start-2: -6

How did CCCCN(C(=O)NC(=O)Nc1ccccc1OCC)S(C)(=O)=O do in these assays?
Yeast UUG start-1: -11; Cneo AK release: -2; miR122 inh: 3; HIV Env fusion: -3; FN deposition inh: -15; PGC1a acetyl inh: -1

What do the screens show for `Cc1ccc(Cn2ccc(NC(=O)c3cc(-c4ccc(Cl)cc4)on3)n2)cc1`?
miR122 inh: -3; HIV Env fusion: -41; PGC1a acetyl inh: 3

Results for CC(C)CC#Cc1ccc([C@H]2[C@@H](CO)N3CCCCN(S(=O)(=O)c4ccc(F)cc4)C[C@H]23)cc1 ?
Yeast UUG start-1: 81*; Cneo AK release: 1; miR122 inh: -3[16.7 µM]; PGC1a acetyl inh: -21; Yeast UUG start-2: inactive

How did COc1ccc(NC(=O)Nc2ccc3c(c2)C(=O)N([C@H](C)CO)C[C@@H](C)[C@H](CN(C)C(=O)Nc2ccc(F)cc2)O3)cc1 do in these assays?
Yeast UUG start-1: 5; Cneo AK release: 1; miR122 inh: -2[16.7 µM]; HIV Env fusion: 8[16.7 µM]; PGC1a acetyl inh: 24

What do the screens show for `C[C@@H]1CN([C@H](C)CO)C(=O)Cc2cc(NC(=O)Cc3cn(C)c4ccccc34)ccc2O[C@H]1CN(C)Cc1ccc(C(=O)O)cc1`?
Yeast UUG start-1: -11; Cneo AK release: 4; miR122 inh: -7[16.7 µM]; HIV Env fusion: -14[16.7 µM]; PGC1a acetyl inh: 2

How did CC(=O)N(C)C[C@@H]1Oc2cc(C#C[C@H](C)O)ccc2S(=O)(=O)N([C@H](C)CO)C[C@@H]1C do in these assays?
Yeast UUG start-1: -5; Cneo AK release: 4; miR122 inh: -2[16.7 µM]; HIV Env fusion: -2[16.7 µM]; PGC1a acetyl inh: 4

What do the screens show for `C[C@@H](O)C#Cc1ccc2c(c1)O[C@@H](CN(C)Cc1cncnc1)[C@@H](C)CN([C@@H](C)CO)S2(=O)=O`?
Yeast UUG start-1: 103*; Cneo AK release: -4; miR122 inh: -3[16.7 µM]; HIV Env fusion: -11[16.7 µM]; FN deposition inh: -23; PGC1a acetyl inh: 7; Yeast UUG start-2: inactive

What do the screens show for `CC(C)C#Cc1ccc2c(c1)O[C@@H](CN(C)Cc1ccccn1)[C@@H](C)CN([C@H](C)CO)S2(=O)=O`?
Yeast UUG start-1: 61*; Cneo AK release: -2; miR122 inh: -5[16.7 µM]; HIV Env fusion: 1[16.7 µM]; FN deposition inh: 2; PGC1a acetyl inh: -5; Yeast UUG start-2: inactive

How did CC(=O)N(C)C[C@@H]1Oc2cc(C#C[C@@H](C)O)ccc2S(=O)(=O)N([C@@H](C)CO)C[C@@H]1C do in these assays?
Yeast UUG start-1: 121*; Cneo AK release: 0; miR122 inh: 1[16.7 µM]; HIV Env fusion: -9[16.7 µM]; PGC1a acetyl inh: 4; Yeast UUG start-2: inactive

Results for C/C=C/c1ccc2c(c1)O[C@@H](CN(C)Cc1cccc(F)c1)[C@@H](C)CN([C@H](C)CO)S2(=O)=O ?
Yeast UUG start-1: 105*; Cneo AK release: -9; HIV Env fusion: 28[16.7 µM]; FN deposition inh: -11; PGC1a acetyl inh: -19; Yeast UUG start-2: inactive

What do the screens show for `C[C@H](O)C#Cc1ccc2c(c1)O[C@H](CN(C)Cc1cncnc1)[C@@H](C)CN([C@@H](C)CO)S2(=O)=O`?
Yeast UUG start-1: 0; Cneo AK release: 0; miR122 inh: -1[16.7 µM]; HIV Env fusion: -17[16.7 µM]; FN deposition inh: -9; PGC1a acetyl inh: 11

How did COc1ccc(NC(=O)N(C)C[C@@H]2Oc3ccc(NC(=O)Nc4ccc(C(F)(F)F)cc4)cc3C(=O)N([C@H](C)CO)C[C@@H]2C)cc1 do in these assays?
Yeast UUG start-1: -16; Cneo AK release: 0; miR122 inh: -5[16.7 µM]; HIV Env fusion: -56[16.7 µM]; PGC1a acetyl inh: -10

What do the screens show for `C[C@@H]1CCCCO[C@H](CN(C)Cc2ccc(C(F)(F)F)cc2)[C@@H](C)CN([C@H](C)CO)C(=O)c2cc(NC(=O)C3CCCCC3)ccc2O1`?
Yeast UUG start-1: -3; Cneo AK release: -3; miR122 inh: -8[16.7 µM]; HIV Env fusion: inconclusive; PGC1a acetyl inh: 7

Results for COCC#Cc1ccc2c(c1)O[C@H](CN(C)Cc1cccnc1)[C@@H](C)CN([C@@H](C)CO)S2(=O)=O ?
Yeast UUG start-1: -10; Cneo AK release: -2; miR122 inh: 1[16.7 µM]; HIV Env fusion: -10[16.7 µM]; FN deposition inh: -5; PGC1a acetyl inh: 2

Results for CCC(=O)N(C)C[C@@H]1Oc2cc(C#Cc3ccccc3)ccc2S(=O)(=O)N([C@H](C)CO)C[C@@H]1C ?
Yeast UUG start-1: 0; Cneo AK release: 1; miR122 inh: 24[16.7 µM]; HIV Env fusion: 38[16.7 µM]; FN deposition inh: 0; PGC1a acetyl inh: 15

Results for COCC#Cc1ccc2c(c1)O[C@@H](CN(C)Cc1cccnc1)[C@@H](C)CN([C@@H](C)CO)S2(=O)=O ?
Yeast UUG start-1: 154*; Cneo AK release: -3; miR122 inh: 12[16.7 µM]; HIV Env fusion: -34[16.7 µM]; FN deposition inh: -10; PGC1a acetyl inh: 10; Yeast UUG start-2: inactive

Grouped by structure, the entries above with an aryl methoxy group (two)
How did COc1ccc(NC(=O)Nc2ccc3c(c2)C(=O)N([C@H](C)CO)C[C@@H](C)[C@H](CN(C)C(=O)Nc2ccc(F)cc2)O3)cc1 do in these assays?
Yeast UUG start-1: 5; Cneo AK release: 1; miR122 inh: -2[16.7 µM]; HIV Env fusion: 8[16.7 µM]; PGC1a acetyl inh: 24

How did COc1ccc(NC(=O)N(C)C[C@@H]2Oc3ccc(NC(=O)Nc4ccc(C(F)(F)F)cc4)cc3C(=O)N([C@H](C)CO)C[C@@H]2C)cc1 do in these assays?
Yeast UUG start-1: -16; Cneo AK release: 0; miR122 inh: -5[16.7 µM]; HIV Env fusion: -56[16.7 µM]; PGC1a acetyl inh: -10

Screens deposited in PubChem BioAssay by Broad Institute.
